From PubChem BioAssay (NCI)
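Tested at 5 concentrations; 48 h exposure; 96-well plates; endpoints linearly interpolated, else capped at highest concentration. GI50: concentration for 50% inhibition of growth. The concentration for full growth arrest is given as TGI.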

Tested on: MDA-MB-468 breast
Experiment: growth of human tumour cells (NCI), 48 h

N#CC1(Nc2ccc(Cl)cc2)CCN(Cc2ccccc2)CC1
GI50: 27.5 µM
TGI: > 100 µM
